Activation data for three molecules are collected here from PubChem BioAssay AID784 (The Scripps Research Institute Molecular Screening Center, 2007).

The chains behind the UniProt entries cited, without tags or fusion partners.
UniProt P04062, whole entry L483P: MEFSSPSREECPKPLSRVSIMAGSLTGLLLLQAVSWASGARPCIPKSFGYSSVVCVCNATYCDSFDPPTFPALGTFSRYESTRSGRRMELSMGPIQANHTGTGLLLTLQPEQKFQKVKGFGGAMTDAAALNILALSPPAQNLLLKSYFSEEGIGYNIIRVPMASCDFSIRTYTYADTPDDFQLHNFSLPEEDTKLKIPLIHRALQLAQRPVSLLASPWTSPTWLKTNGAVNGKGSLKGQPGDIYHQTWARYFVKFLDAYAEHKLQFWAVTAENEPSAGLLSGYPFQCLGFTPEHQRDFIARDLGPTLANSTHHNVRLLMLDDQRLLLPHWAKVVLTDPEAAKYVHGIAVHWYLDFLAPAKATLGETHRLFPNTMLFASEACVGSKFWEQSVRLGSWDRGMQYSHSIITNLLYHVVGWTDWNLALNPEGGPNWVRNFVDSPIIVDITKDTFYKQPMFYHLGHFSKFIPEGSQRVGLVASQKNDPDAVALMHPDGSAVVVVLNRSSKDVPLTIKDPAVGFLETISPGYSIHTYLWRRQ

SMILES strings stand for the structures. Only a part is listed here, and it is no random draw. Calls of active or inactive are those of the source. Cut-off read from the data, not from the text of the source: active = activation above about 65%; inactive = the rest.

In the assay the target is Lysosomal acid glucosylceramidase (Homo sapiens) (UniProt P04062). As to the kind of experiment: raising glucocerebrosidase activity, Gaucher cells – primary screen (AID 784).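 Note: 0% = vehicle wells and 100% = positive control wells.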 The following applies: L444P Gaucher fibroblasts, 4-MU-glucoside fluorescence, 3 days; at 10 µM; stronger effect = higher value.
With `O=C(OC1CN2CCC1CC2)C1c2ccccc2Oc2ccccc21` (stereo not drawn), the activation was inactive: -25%.
For `N/C(=N\O)c1c(N)no[n+]1[O-]`, the activation is inactive: -8.94%.
The value for `CCOc1ncccc1C(=O)NCC1(N2CCOCC2)CCCCC1` was inactive: -33.3%.
